Measured values as given in PubChem BioAssay AID588726 (The Scripps Research Institute Molecular Screening Center, 2011).
The list shows a part of the results, in another mix than the full data. Activity calls are given as the source filed them. Rule as the data show it: active = inhibition above about 27%; inactive = the rest.

Amino acid sequences for entries named in this document (tags omitted).
UniProt P9WQA3, whole entry: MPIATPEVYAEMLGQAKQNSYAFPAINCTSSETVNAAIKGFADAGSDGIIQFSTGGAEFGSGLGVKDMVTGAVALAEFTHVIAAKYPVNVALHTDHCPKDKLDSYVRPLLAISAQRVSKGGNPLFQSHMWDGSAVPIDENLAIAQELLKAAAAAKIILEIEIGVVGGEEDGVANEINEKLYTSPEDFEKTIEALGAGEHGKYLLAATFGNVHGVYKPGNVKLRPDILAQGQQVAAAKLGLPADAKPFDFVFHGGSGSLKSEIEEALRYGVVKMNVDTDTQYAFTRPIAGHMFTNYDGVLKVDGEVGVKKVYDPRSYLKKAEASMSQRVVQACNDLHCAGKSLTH

Biological target: Fructose-bisphosphate aldolase (Mycobacterium tuberculosis (strain ATCC 25618 / H37Rv)) (UniProt P9WQA3)
Experiment: M. tuberculosis aldolase activity blockers – biochemical, fluorescence, strain H37Rv, primary screen (AID 588726);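 also: 0% = vehicle and 100% = reference inhibitor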
Details: purified M. tuberculosis FBA, fluorescence read-out; at 1 µM; stronger effect = higher value

SMILES	inhibition
CCC(=O)N(c1ccccc1)C1(COC)CCN(CCc2cccs2)CC1	inactive: 5.57%
CCC(=O)N(c1ccccc1)C1(COC)CCN(CCn2nnn(CC)c2=O)CC1	inactive: -0.16%
